Ab-14 heavy chain CDR variants: yeast mating affinities

Values reported by Engelhart et al. 2022, doi:10.1038/s41597-022-01779-4 (FLAb copy).

All variants were tested on one target, the spike HR2 peptide PDVDLGDISGINAS (SARS-CoV-2).

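The parent was found by panning a naive human phage display library on the peptide. Library AAYL49 holds single substitutions and randomly drawn double and triple substitutions in the CDRs. Affinity was read by AlphaSeq, a pooled yeast mating assay with surface-displayed partners. Binding brings cells together so that they mate, and sequencing counts the barcode pairs among the diploids. Read counts were normalised to the haploid input and turned into Kd by a linear fit to BCL2-family pairs of known affinity, for each replicate. The assay was run in three technical replicates.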

Parent scFv Ab-14: VH joined to VL by a (GGGGS)3 linker. Changes lie in the heavy chain CDRs alone.
VH: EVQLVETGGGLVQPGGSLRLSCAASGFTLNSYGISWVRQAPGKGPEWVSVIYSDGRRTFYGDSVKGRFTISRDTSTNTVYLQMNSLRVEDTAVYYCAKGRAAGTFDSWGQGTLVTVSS
VL: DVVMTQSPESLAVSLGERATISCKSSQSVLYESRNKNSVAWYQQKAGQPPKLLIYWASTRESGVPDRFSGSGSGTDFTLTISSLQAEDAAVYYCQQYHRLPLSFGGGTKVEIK

Positions count from residue 1 of the parent VH; S31R puts R in place of S.
This list gathers variants with a substitution at R57 (VH, numbered from residue 1).
Each Kd is an estimate from the mating assay, the geometric mean of the replicates in which the pair was seen; lower is stronger.
"no signal" means that the variant was in the library but no mating with the target was seen in any replicate; the authors take this as a sign of poor binding, and no number exists.
Nonspecific signal, from three strains lacking the peptide, appeared in 15% of pairings of library AAYL49, centred on 11 µM (5% of these signals below 680 nM); values are not corrected for it. Also given: how often the same scFv was detected with the empty control strains.
Parent in this assay: reference entry 4.4 nM, copy in this library 13 µM (one replicate of three).

- S31R R57K V64A -> no signal (0 of 3 replicates; controls 0 of 9)
- G33Y R57H -> 1.3 µM (1 of 3 replicates; controls 2 of 9)
- R57D D62A A102I -> no signal (0 of 3 replicates; controls 0 of 9)
- G33F R57P S63G -> 57 µM (2 of 3 replicates; controls 1 of 9)
- T28D G33L R57G -> no signal (0 of 3 replicates; controls 2 of 9)
- R56V R57T -> 140 nM (3 of 3 replicates; controls 4 of 9)
- F27Q T28S R57T -> no signal (0 of 3 replicates; controls 1 of 9)
- G55D R57K G99E -> no signal (0 of 3 replicates; controls 2 of 9)
- Y32C I34G R57F -> 9.4 µM (1 of 3 replicates; controls 1 of 9)
- S31A Y52L R57M -> 42 µM (2 of 3 replicates; controls 2 of 9)
- G55P R57Q Y60W -> 1.3 mM (2 of 3 replicates; controls 2 of 9)
- R57Q T58F G99P -> no signal (0 of 3 replicates; controls 0 of 9)
- Y52M R57E Y60Q -> no signal (0 of 3 replicates; controls 0 of 9)
- T28I R57V G103D -> no signal (0 of 3 replicates; controls 0 of 9)
- Y52K R57H G103Y -> no signal (0 of 3 replicates; controls 0 of 9)
- N30Y R57Q R100K -> 9.9 µM (1 of 3 replicates; controls 1 of 9)
- R57C -> no signal (0 of 3 replicates; controls 3 of 9)
- S31I R57E A101E -> 1.6 µM (1 of 3 replicates; controls 1 of 9)
- S35A R57M D106V -> no signal (0 of 3 replicates; controls 0 of 9)
- F27K L29W R57V -> no signal (0 of 3 replicates; controls 0 of 9)
- D54Y R57V S107I -> no signal (0 of 3 replicates; controls 1 of 9)
- N30H R57T R100F -> no signal (0 of 3 replicates; controls 0 of 9)
- S35K R57S D106Q -> 8.5 µM (2 of 3 replicates; controls 1 of 9)
- R57V T58I -> 4.2 µM (1 of 3 replicates; controls 2 of 9)
- D54F R57S F105R -> no signal (0 of 3 replicates; controls 1 of 9)
- R57W D62W A101N -> 1.6 µM (1 of 3 replicates; controls 1 of 9)
- S31W Y32A R57Y -> 27 µM (2 of 3 replicates; controls 2 of 9)
- Y52T R57V G103R -> 190 µM (2 of 3 replicates; controls 6 of 9)
- R57S F59G G61Y -> no signal (0 of 3 replicates; controls 0 of 9)
- R57W -> no signal (0 of 3 replicates; controls 1 of 9)
- R57Y F59P A102E -> no signal (0 of 3 replicates; controls 1 of 9)

Extract of 3 entries:

{"changes": "S31I R57E A101E", "apparent Kd": "1.6 µM", "seen in": "1/3", "signal with controls": "1/9"}
{"changes": "T28D G33L R57G", "apparent Kd": "no signal", "seen in": "0/3", "signal with controls": "2/9"}
{"changes": "R57D D62A A102I", "apparent Kd": "no signal", "seen in": "0/3", "signal with controls": "0/9"}